Source: PubChem BioAssay (NCATS)
Only a part is listed here, and it is no random draw. Results filed as inconclusive are left out. Active and inactive are the calls of the source. Unless noted, calls come from the whole dose curve; as a rule, active = well fitted curve in the direction sought with a large enough effect; inconclusive = small, poorly fitted or top-dose-only effect, or another doubt; inactive = no such curve, though single readings can be large; an effect the other way counts as inactive or inconclusive.

The chains behind the UniProt entries cited, without tags or fusion partners. Where a name states a change or a piece, a line headed by the entry shows the natural chain unless it says otherwise.
UniProt O15297: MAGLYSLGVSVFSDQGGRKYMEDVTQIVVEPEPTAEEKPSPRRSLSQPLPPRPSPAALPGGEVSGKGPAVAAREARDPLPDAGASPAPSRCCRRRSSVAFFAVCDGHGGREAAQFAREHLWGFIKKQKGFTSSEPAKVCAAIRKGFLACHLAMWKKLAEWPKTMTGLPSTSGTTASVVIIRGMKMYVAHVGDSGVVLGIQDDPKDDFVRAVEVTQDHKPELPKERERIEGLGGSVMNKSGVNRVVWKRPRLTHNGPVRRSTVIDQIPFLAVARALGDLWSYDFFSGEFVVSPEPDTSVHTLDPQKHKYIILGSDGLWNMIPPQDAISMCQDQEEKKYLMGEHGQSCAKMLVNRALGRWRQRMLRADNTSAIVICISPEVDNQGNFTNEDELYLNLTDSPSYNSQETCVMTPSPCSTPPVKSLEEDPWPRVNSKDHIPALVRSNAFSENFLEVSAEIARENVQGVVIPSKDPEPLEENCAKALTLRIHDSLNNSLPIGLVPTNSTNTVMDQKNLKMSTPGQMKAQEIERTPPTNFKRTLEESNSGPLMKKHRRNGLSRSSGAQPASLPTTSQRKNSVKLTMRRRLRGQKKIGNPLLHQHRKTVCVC
UniProt P08684, whole entry, looked up: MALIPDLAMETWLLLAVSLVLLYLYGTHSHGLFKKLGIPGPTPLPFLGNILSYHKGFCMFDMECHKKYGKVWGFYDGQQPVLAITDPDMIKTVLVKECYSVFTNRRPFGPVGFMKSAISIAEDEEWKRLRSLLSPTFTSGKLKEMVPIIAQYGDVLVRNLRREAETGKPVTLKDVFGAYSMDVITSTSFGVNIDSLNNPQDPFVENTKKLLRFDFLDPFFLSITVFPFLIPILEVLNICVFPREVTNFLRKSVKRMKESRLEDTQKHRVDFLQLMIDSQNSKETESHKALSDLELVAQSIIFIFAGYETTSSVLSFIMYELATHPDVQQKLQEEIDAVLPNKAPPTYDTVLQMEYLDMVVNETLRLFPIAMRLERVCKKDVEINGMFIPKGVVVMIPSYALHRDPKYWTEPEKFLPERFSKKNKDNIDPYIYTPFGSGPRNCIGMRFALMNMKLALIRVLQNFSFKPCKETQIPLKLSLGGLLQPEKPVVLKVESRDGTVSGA
UniProt P11712, whole entry, looked up: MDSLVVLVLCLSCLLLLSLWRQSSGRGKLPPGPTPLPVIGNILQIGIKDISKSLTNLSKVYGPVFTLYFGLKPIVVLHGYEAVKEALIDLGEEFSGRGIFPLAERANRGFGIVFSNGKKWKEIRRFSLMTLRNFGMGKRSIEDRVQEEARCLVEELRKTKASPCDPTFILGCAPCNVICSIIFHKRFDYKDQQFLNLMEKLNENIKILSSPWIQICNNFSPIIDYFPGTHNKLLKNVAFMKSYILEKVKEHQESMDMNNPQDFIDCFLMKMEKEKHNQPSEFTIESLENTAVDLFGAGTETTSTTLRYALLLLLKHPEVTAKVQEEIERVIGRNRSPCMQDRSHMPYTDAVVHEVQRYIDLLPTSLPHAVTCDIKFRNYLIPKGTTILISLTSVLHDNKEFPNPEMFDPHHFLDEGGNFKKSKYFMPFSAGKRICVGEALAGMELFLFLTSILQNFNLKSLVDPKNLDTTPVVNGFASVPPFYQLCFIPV

What was measured:
[1] = qHTS Assay for Identifying Gametocytocidal Compounds (AID 743244);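 note: % is set by controls: 0 for no effect and ±100 for the full control effect; actives lower the fluorescent signal which means gametocytes are killed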; settings: P. falciparum 3D7 stage III-V gametocytes, alamarBlue, 72 h; max response: stronger effect = lower value
[2] = P-glycoprotein substrates identified in KB-8-5-11 adenocarcinoma cell line, qHTS therapeutic library screen (AID 1346987); settings: KB-8-5-11 (P-gp overexpressing) viability, CellTiter-Glo, 72 h; at 44.5 µM (top of the series) unless noted; note: % is set by controls: 0 for no effect and ±100 for the full control effect; nearly all actives have a fitted effect of over 65% in size
[3] = qHTS of pediatric cancer cell lines to identify multiple opportunities for drug repurposing: Primary screen for TC32 cells (AID 1347089); settings: TC32 Ewing sarcoma viability, CellTiter-Glo luminescence, 48 h; at 45.8 µM (top of the series) unless noted; note: % is set by controls: 0 for no effect and ±100 for the full control effect; nearly all actives have a fitted effect of over 60% in size
[4] = qHTS of pediatric cancer cell lines to identify multiple opportunities for drug repurposing: Primary screen for DAOY cells (AID 1347090);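 note: plate controls were DMSO for no effect and bortezomib for full effect; nearly all actives have a fitted effect of over 55% in size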
[5] = qHTS of pediatric cancer cell lines to identify multiple opportunities for drug repurposing: Primary screen for SJ-GBM2 cells (AID 1347091); settings: SJ-GBM2 viability, CellTiter-Glo luminescence, 48 h; at 46 µM (top of the series) unless noted;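 note: plate controls were DMSO neutral control for no effect and bortezomib for full effect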
[6] = qHTS of pediatric cancer cell lines to identify multiple opportunities for drug repurposing: Primary screen for A673 cells (AID 1347092); settings: A673 Ewing sarcoma viability, CellTiter-Glo ATP luminescence, 48 h; at 46 µM (top of the series) unless noted; note: % is set by controls: 0 for no effect and ±100 for the full control effect; nearly all actives have a fitted effect of over 45% in size
[7] = qHTS of pediatric cancer cell lines to identify multiple opportunities for drug repurposing: Primary screen for SK-N-MC cells (AID 1347093); settings: SK-N-MC viability, CellTiter-Glo luminescence, 48 h; at 46 µM (top of the series) unless noted;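 note: plate controls were DMSO neutral control for no effect and bortezomib for full effect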
[8] = qHTS of pediatric cancer cell lines to identify multiple opportunities for drug repurposing: Primary screen for BT-37 cells (AID 1347094); settings: BT-37 viability, CellTiter-Glo luminescence, 48 h; at 57.3 µM (top of the series) unless noted;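 note: plate controls were DMSO for no effect and bortezomib for full effect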
[9] = qHTS of pediatric cancer cell lines to identify multiple opportunities for drug repurposing: Primary screen for NB-EBc1 cells (AID 1347095); settings: NB-EBc1 neuroblastoma viability, CellTiter-Glo luminescence, 48 h; at 46 µM (top of the series) unless noted;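 note: plate controls were DMSO neutral control for no effect and bortezomib for full effect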
[10] = qHTS of pediatric cancer cell lines to identify multiple opportunities for drug repurposing: Primary screen for U-2 OS cells (AID 1347096); settings: U-2 OS viability, CellTiter-Glo luminescence, 48 h; at 46 µM (top of the series) unless noted;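 note: plate controls were DMSO wells for no effect and bortezomib positive control wells for full effect; nearly all actives have a fitted effect of over 50% in size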
[11] = qHTS of pediatric cancer cell lines to identify multiple opportunities for drug repurposing: Primary screen for Saos-2 cells (AID 1347097); settings: Saos-2 viability, CellTiter-Glo ATP luminescence, 48 h; at 46 µM (top of the series) unless noted; note: % is set by controls: 0 for no effect and ±100 for the full control effect; nearly all actives have a fitted effect of over 40% in size
[12] = qHTS of pediatric cancer cell lines to identify multiple opportunities for drug repurposing: Primary screen for SK-N-SH cells (AID 1347098); settings: SK-N-SH viability, CellTiter-Glo luminescence, 48 h; at 57 µM (top of the series) unless noted;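 note: DMSO served as neutral control and bortezomib at 2.3 µM as positive control; % is set by controls: 0 for no effect and ±100 for the full control effect; nearly all actives have a fitted effect of over 65% in size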
[13] = qHTS of pediatric cancer cell lines to identify multiple opportunities for drug repurposing: Primary screen for NB1643 cells (AID 1347099); settings: NB1643 neuroblastoma viability, CellTiter-Glo luminescence, 48 h; at 46 µM (top of the series) unless noted;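 note: plate controls were DMSO neutral control for no effect and bortezomib positive control for full effect; nearly all actives have a fitted effect of over 50% in size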
[14] = qHTS of pediatric cancer cell lines to identify multiple opportunities for drug repurposing: Primary screen for LAN-5 cells (AID 1347100); settings: LAN-5 neuroblastoma viability, CellTiter-Glo luminescence, 48 h; at 46 µM (top of the series) unless noted;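 note: plate controls were DMSO neutral control for no effect and bortezomib positive control for full effect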
[15] = qHTS of pediatric cancer cell lines to identify multiple opportunities for drug repurposing: Primary screen for BT-12 cells (AID 1347101);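 note: plate controls were DMSO for no effect and bortezomib positive control for full effect; nearly all actives have a fitted effect of over 25% in size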
[16] = qHTS of pediatric cancer cell lines to identify multiple opportunities for drug repurposing: Primary screen for Rh18 cells (AID 1347102); settings: Rh18 rhabdomyosarcoma viability, CellTiter-Glo luminescence, 48 h; at 46 µM (top of the series) unless noted; note: % is set by controls: 0 for no effect and ±100 for the full control effect; nearly all actives have a fitted effect of over 65% in size
[17] = qHTS of pediatric cancer cell lines to identify multiple opportunities for drug repurposing: Primary screen for OHS-50 cells (AID 1347103);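 note: plate controls were DMSO neutral control for no effect and bortezomib positive control for full effect; nearly all actives have a fitted effect of over 40% in size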
[18] = qHTS of pediatric cancer cell lines to identify multiple opportunities for drug repurposing: Primary screen for RD cells (AID 1347104); settings: RD rhabdomyosarcoma viability, CellTiter-Glo luminescence, 48 h; at 46 µM (top of the series) unless noted;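 note: plate controls were DMSO for no effect and bortezomib for full effect; nearly all actives have a fitted effect of over 55% in size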
[19] = qHTS of pediatric cancer cell lines to identify multiple opportunities for drug repurposing: Primary screen for MG 63 (6-TG R) cells (AID 1347105); settings: MG 63 (6-TG R) viability, CellTiter-Glo, 48 h; at 46 µM (top of the series) unless noted; note: % is set by controls: 0 for no effect and ±100 for the full control effect; nearly all actives have a fitted effect of over 50% in size
[20] = qHTS of pediatric cancer cell lines to identify multiple opportunities for drug repurposing: Primary screen for control Hh wild type fibroblast cells (AID 1347106); settings: Hh wild-type fibroblast viability, CellTiter-Glo luminescence, 48 h; at 46 µM (top of the series) unless noted;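 note: % is set by controls: 0 for no effect and ±100 for the full control effect; a drop in luminescence marks cytotoxicity and a rise apparent proliferation; nearly all actives have a fitted effect of over 55% in size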
[21] = qHTS of pediatric cancer cell lines to identify multiple opportunities for drug repurposing: Primary screen for Rh30 cells (AID 1347107); settings: Rh30 rhabdomyosarcoma viability, CellTiter-Glo luminescence, 48 h; at 46 µM (top of the series) unless noted; note: % is set by controls: 0 for no effect and ±100 for the full control effect; nearly all actives have a fitted effect of over 75% in size
[22] = qHTS of pediatric cancer cell lines to identify multiple opportunities for drug repurposing: Primary screen for Rh41 cells (AID 1347108); settings: Rh41 rhabdomyosarcoma viability, CellTiter-Glo luminescence, 48 h; at 46 µM (top of the series) unless noted;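 note: luminescence drop marks cytotoxic hits; nearly all actives have a fitted effect of over 70% in size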
[23] = qHTS to identify inhibitors of the type 1 interferon - major histocompatibility complex class I in skeletal muscle: primary screen against the NCATS Pharmaceutical Collection (AID 1347407); settings: human skeletal muscle cells, IFN-b-induced MHC-I HiBiT luminescence, 24 h; at 45.9 µM (top of the series) unless noted;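 note: luminescence of HiBiT knocked into endogenous HLA-B as interferon-induced MHC class I level; % is set by controls: 0 for no effect and ±100 for the full control effect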
In short: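 HLA-B HiBiT myoblasts, dexamethasone-free growth medium + 4 ng/ml IFN-b; compounds pinned 1 h after seeding, […] from 46 uM; 24 h, 37 C, 5% CO2; lytic HiBiT detection, 10 min RT, luminescence.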

[24] = target: Protein phosphatase 1D (Homo sapiens) (UniProt O15297); experiment: RapidFire Mass Spectrometry qHTS Assay for Modulators of WT P53-Induced Phosphatase 1 (WIP1) (AID 1347424); settings: WIP1 dephosphorylation of phosphopeptide, RapidFire MS; at 63 µM (top of the series) unless noted;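 note: amount of dephosphorylated VEPPL-S-QETFS peptide product formed by WIP1; plate controls were DMSO wells for no effect and GSK830371 inhibitor control at 10 µM for full effect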
In short: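 10 nM WIP1 + cpd, 1 h RT; + 2 uM VEPPL-pS-QETFS, 5 min RT; stop 0.5% formic acid; labelled product standard 1 uM; RapidFire MS. Buffer 50 mM Tris pH 7.5, 30 mM MgCl2, 1 mM TCEP.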

[25] = target: Protein phosphatase 1D (Homo sapiens) (UniProt O15297); experiment: Rhodamine-PBP qHTS Assay for Modulators of WT P53-Induced Phosphatase 1 (WIP1) (AID 1347425); settings: recombinant WIP1, Rhodamine-PBP phosphate fluorescence, real-time; at 57.5 µM (top of the series) unless noted; note: % of control where 0% means no effect
In short: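 The read-out is the change in Rhodamine-PBP fluorescence (f1 - f0, ex 525/em 598 nm) as Pi is released, read each minute for 11 min. Final reaction: 5 nM WIP1, 10 uM phosphopeptide VEPPL-pS-QETFS, 10 uM Rh-PBP, 50 mM Tris-HCl pH 7.5, 30 mM MgCl2. Compound was preincubated with enzyme for 1 hour at room temperature.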

[26] = A High-Content qHTS Against Drug Library for the Identification of Small Molecules that Inhibit DYT1 Early Onset Primary Dystonia-Associated Cell Pathology (AID 1645839; calls by dose curve)
In short: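 In this high-content image screen, delE TorsinA mislocalization in inducible Flp-In 293 cells is scored as %pathology, with cell count serving as the counterscreen. Compound exposure lasts 48 h under tetracycline induction in reduced-serum medium.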

[27] = target: Cytochrome P450 3A4 (Homo sapiens) (UniProt P08684); experiment: Cytochrome P450 family 3 subfamily A member 4 (CYP3A4) small molecule antagonists: luciferase qHTS assay (AID 1645841; active = well fitted curve in the direction sought with a large enough effect in the repeat runs; an effect the other way counts as inactive or inconclusive; note: nearly all actives have a fitted effect of over 45% in size)
[28] = target: Cytochrome P450 2C9 (Homo sapiens) (UniProt P11712); experiment: Cytochrome P450 family 2 subfamily C member 9 (CYP2C9) small molecule antagonists: luciferase qHTS assay (AID 1645842; active = well fitted curve in the direction sought with a large enough effect in the repeat runs; an effect the other way counts as inactive or inconclusive; note: % is set by controls: 0 for no effect and ±100 for the full control effect; nearly all actives have a fitted effect of over 55% in size); settings: P450-Glo CYP2C9 enzyme assay, luciferin luminescence; at 57.4 µM (top of the series) unless noted
In short: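 Luminescence, after 20 min with luciferin detection reagent, reflected CYP2C9 turnover during a 1 h NADPH-driven reaction at 37C. Enzyme-substrate mix contained 0.4% bovine serum albumin and was preincubated with compound 10 min at room temperature.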

[29] = Primary qHTS for inhibitors of nuclear receptor binding SET domain protein 2 (NSD2) in an isogenic RCH-ACV NSD2 p.E1099K mutant (9B) (AID 1645876); note: % is set by controls: 0 for no effect and ±100 for the full control effect; nearly all actives have a fitted effect of over 70% in size
[30] = system: CRL-7250; experiment: Cytotoxic Profiling of Annotated Libraries Using Quantitative High-Throughput Screening (AID 1296008); settings: Five cell lines viability, CellTiter-Glo ATP luminescence, 48-72 h; stronger effect = lower value; note: nearly all actives have a fitted effect of over 60% in size

CCNC(C)Cc1ccc2c(c1)OCO2 (stereo not given)
inactive: max response [1] -0.963% | activity change, negative = cytotoxicity [2] -13.3% [at 93.4 µM] | activity change, negative = cytotoxic [3] 4.31% [at 92.2 µM] | Potency [4] | activity change, negative = cytotoxic [5] -22.3% [at 92.7 µM] | activity change, negative = cytotoxic [6] -4.82% [at 92.7 µM] | activity change, negative = cytotoxic [7] -18.8% [at 92.7 µM] | activity change, negative = cytotoxic [8] -4.57% [at 116 µM] | activity change, negative = cytotoxic [9] -9.55% [at 92.7 µM] | activity change, negative = cytotoxic [10] -5.03% [at 92.7 µM] | activity change, negative = cytotoxic [11] -22.5% [at 92.7 µM] | activity change, negative = cytotoxic [12] 5.73% [at 115 µM] | activity change, negative = cytotoxic [13] 0% [at 92.7 µM] | activity change, negative = cytotoxic [14] -3.8% [at 92.7 µM] | Potency [15] | activity change, negative = cytotoxic [16] -0.225% [at 92.7 µM] | Potency [17] | activity change, negative = cytotoxic [18] -3.53% [at 92.7 µM] | activity change, negative = cytotoxic [19] -22.5% [at 92.7 µM] | activity change, negative = cytotoxic [20] 12.5% [at 92.7 µM] | activity change, negative = cytotoxic [21] 5.01% [at 92.7 µM] | activity change, negative = cytotoxic [22] -1.2% [at 92.7 µM] | activity change, negative = inhibition [23] -1.79% [at 92.2 µM] | activity change, negative = inhibition [24] -19.2% [at 128 µM] | activity change, negative = inhibition [25] 10% [at 116 µM] | Potency [26] | Potency [27] | activity change, negative = inhibition [28] 7.5% [at 115 µM] | Potency [29] | outcome [30]
